# Antibody variant affinities, Ab-14 light chain, assay 1

Binding partner: SARS-CoV-2 spike HR2 peptide, sequence PDVDLGDISGINAS.

The variants keep the heavy chain, the linker and the frameworks of Ab-14 (scFv order VH, a 15-residue (Gly4Ser)3 linker, VL).
VH: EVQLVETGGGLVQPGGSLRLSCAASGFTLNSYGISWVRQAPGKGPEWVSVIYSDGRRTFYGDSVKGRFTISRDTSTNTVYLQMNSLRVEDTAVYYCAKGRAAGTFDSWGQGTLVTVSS
VL: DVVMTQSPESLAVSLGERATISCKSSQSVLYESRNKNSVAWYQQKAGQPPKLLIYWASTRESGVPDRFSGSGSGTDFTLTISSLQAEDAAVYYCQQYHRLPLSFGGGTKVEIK

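The parent was found by panning a naive human phage display library on the peptide. In library AAYL50, one, two or three CDR residues were substituted; doubles and triples were drawn at random. The assay is AlphaSeq: two haploid yeast populations carry antibody and antigen on their surface. After mating in shaken culture at 30 °C for 16 h, diploids were selected and their barcode pairs sequenced. Each replicate has its own calibration line, from reference interactions of the BCL2 family. The assay was run in three technical replicates.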

Each variant is given by its three light chain CDRs, as the data file delimits them; those of the parent are KSSQSVLYESRNKNSVA, WASTRES, QQYHRLPLS.
Every variant below is changed at S58 of the VL (sequential numbering).
Kd is apparent (estimated from mating counts) and averaged on the log scale over replicates with a signal. Smaller is tighter.
"no signal" marks a missing value. The strain was present, yet no cells mated with the target were sequenced in any replicate, which points to weak or no binding.
Three control strains display no target. For library AAYL50, 18% of the pairings with them gave a signal, with a median of 15 µM and one signal in twenty below 970 nM, so weak values seen in few replicates may be background. The control count says in how many pairings with the empty strains this scFv gave a signal.

CDR-L1,CDR-L2,CDR-L3,Kd (apparent),replicates with signal,empty controls
KSSQSVLYESRNKNSVA,PACTRES,QQYHRLWLS,no signal,0 of 3,0 of 9
KSSQSVLYESRNKNSVA,WARLRES,QQYHRLPLC,76 µM,3 of 3,2 of 9
QSSQSVLYESRNKNSVA,WEHTRES,QQYHRLPLS,880 nM,1 of 3,0 of 9
KSSQSVLYESRNKNSVA,WARTRAS,QQHHRLPLS,240 µM,2 of 3,6 of 9
KSSQSVLPESRNKNSVA,WAGTQES,QQYHRLPLS,35 µM,3 of 3,2 of 9
KSSRSVLYESRNKNSCA,WACTRES,QQYHRLPLS,no signal,0 of 3,0 of 9
KSSQSVLYESETKNSVA,WANTRES,QQYHRLPLS,2.2 nM,3 of 3,1 of 9
KSSQSVLYESRNKNSVA,WADERES,HQYHRLPLS,36 nM,3 of 3,0 of 9
KSSQSVLYESRTKNSVA,WAATRES,QQYARLPLS,82 nM,3 of 3,4 of 9
KSSQSVWYESRNKNSVA,WDCTRES,QQYHRLPLS,32 µM,1 of 3,2 of 9
TSSQSVLYESRNKNSVA,WALTRES,QQYHRLPYS,no signal,0 of 3,0 of 9
KSYQSVLYEMRNKNSVA,WAWTRES,QQYHRLPLS,3.5 µM,2 of 3,2 of 9
QMSQSVLYESRNKNSVA,WAQTRES,QQYHRLPLS,2.8 nM,3 of 3,1 of 9
KSSQSVLYESTNKNSVA,WAFTRES,QQYHRMPLS,560 nM,3 of 3,2 of 9
KSSCSVLYESRNKNSVA,WAYTRES,QQYHRLPLR,no signal,0 of 3,0 of 9
KSSQSVLYESRNKNSVA,WAATRES,QQHHRLLLS,no signal,0 of 3,1 of 9
HSSQTVLYESRNKNSVA,WAATRES,QQYHRLPLS,5.3 µM,2 of 3,1 of 9
KSSQSVLYESRNTNSVA,WANVRES,QQYHRLPLS,1.2 nM,3 of 3,0 of 9
KSSQEVLYESRNKASVA,WAKTRES,QQYHRLPLS,180 nM,3 of 3,0 of 9
KSSQCVLYESRMKNSVA,WADTRES,QQYHRLPLS,110 nM,3 of 3,2 of 9
KKSQSVLDESRNKNSVA,WARTRES,QQYHRLPLS,55 µM,1 of 3,5 of 9
KSSQSVLYESRNKNYSA,WAYTRES,QQYHRLPLS,no signal,0 of 3,1 of 9
KSSQSVLYQSRNKNSVA,WAVTRES,QQYHVLPLS,73 nM,3 of 3,1 of 9
KSSQFVLYESRNKNHVA,WARTRES,QQYHRLPLS,no signal,0 of 3,3 of 9
KSSQSVLYESMNKNVVA,WARTRES,QQYHRLPLS,2.0 µM,1 of 3,2 of 9
KSSQSVWYESRNKNSVA,WAVTRES,QWYHRLPLS,41 µM,2 of 3,2 of 9
KSSQSHLYESRNANSVA,WALTRES,QQYHRLPLS,no signal,0 of 3,0 of 9
KSSQSVLYESRNKNSVA,WAAARED,QQYHRLPLS,810 nM,3 of 3,1 of 9
KSSQSVLYESSNKNSVA,WAGTRES,QQYHRLFLS,40 nM,3 of 3,0 of 9
KGEQSVLYESRNKNSVA,WAWTRES,QQYHRLPLS,no signal,0 of 3,0 of 9
KSSQSVLYESRNKNSVA,WAMTRES,NQYHRLPQS,70 µM,1 of 3,0 of 9
KSSQSVLYESRNKWSVA,WVRTRES,QQYHRLPLS,340 nM,3 of 3,1 of 9
KSSQSVLYESRNKISVA,WAMTRKS,QQYHRLPLS,no signal,0 of 3,0 of 9
KSSQSVLYESRNRNSVA,WAKTRES,QQYHRLPLW,5.6 µM,2 of 3,1 of 9
KSSQSVLYESRNKNSVA,WAHERES,QQYHRLWLS,9.7 µM,1 of 3,3 of 9
KSAQSVLYESRNKNSVA,WADIRES,QQYHRLPLS,2.4 µM,1 of 3,0 of 9
KSSQSVLYESRNKNSVA,WAGTRES,QKYHRLPLS,13 nM,3 of 3,2 of 9
KSCQSVLYESRNKNSVA,WARTRES,QQYHRCPLS,no signal,0 of 3,1 of 9
KSSQSVLRESRNKNSVC,WAVTRES,QQYHRLPLS,no signal,0 of 3,0 of 9
KSSQSVLYESTNKNSVA,WKPTRES,QQYHRLPLS,no signal,0 of 3,3 of 9
KSSQSVLYESRNKNSVA,WAFTRES,QQYHLVPLS,5.3 µM,1 of 3,0 of 9
KSSQSVLYESRNKNSVA,WARTRES,QNYHRLPLS,no signal,0 of 3,1 of 9
KSGQSVLYESRNKNSVA,WALTRES,QSYHRLPLS,no signal,0 of 3,1 of 9
KSSQSVLYEHRNKNSVA,WARTQES,QQYHRLPLS,590 nM,1 of 3,0 of 9
KSSQYVLYESRNKNSVA,WAITRES,QQYHGLPLS,310 µM,2 of 3,2 of 9
KSSQSVLYDSRNKYSVA,WADTRES,QQYHRLPLS,5.2 nM,3 of 3,2 of 9
KSSQSVLYESRNKNSVA,WALTRES,QQYHQLPLS,1.9 µM,2 of 3,1 of 9
KSSQSVGYESRNKNSVA,WAGTRES,QQYHRHPLS,42 µM,1 of 3,3 of 9
KSSQSVLYESRNKNSVA,WAPTRES,QWSHRLPLS,120 µM,2 of 3,2 of 9

Values reported by Engelhart et al. 2022, doi:10.1038/s41597-022-01779-4 (FLAb copy).